Protein sequences, listed by entry. Tags and fused reporters are not part of them. Lines headed by an entry give the natural chain unless they say otherwise; changes in a name come on top.
UniProt O88554: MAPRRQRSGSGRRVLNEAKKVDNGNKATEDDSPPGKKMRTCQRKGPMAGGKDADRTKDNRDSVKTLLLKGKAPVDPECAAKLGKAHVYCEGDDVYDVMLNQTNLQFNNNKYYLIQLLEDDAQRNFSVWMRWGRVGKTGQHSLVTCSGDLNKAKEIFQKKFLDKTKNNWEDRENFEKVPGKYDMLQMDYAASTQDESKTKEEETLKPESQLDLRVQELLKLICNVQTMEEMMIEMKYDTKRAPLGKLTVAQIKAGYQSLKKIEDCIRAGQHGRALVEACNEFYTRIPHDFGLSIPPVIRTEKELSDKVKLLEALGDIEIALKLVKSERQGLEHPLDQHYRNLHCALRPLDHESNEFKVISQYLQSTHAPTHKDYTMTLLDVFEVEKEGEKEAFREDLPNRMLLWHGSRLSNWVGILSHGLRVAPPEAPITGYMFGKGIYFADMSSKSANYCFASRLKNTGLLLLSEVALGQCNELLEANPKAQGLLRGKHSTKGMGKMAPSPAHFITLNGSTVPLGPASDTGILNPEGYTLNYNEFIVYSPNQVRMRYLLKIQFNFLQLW

According to US20240325396A1, “METHODS FOR TREATING CANCER” (Allarity Therapeutics, Inc., priority 2023, published 2024):

Biological target: mouse recombinant PARP2 (Mus musculus, UniProt O88554)
Details: read-out: IC50, PARP2 inhibition; cell-free assay in vitro

Compound: O=c1[nH]nc2c3c(cccc13)N=C(CN1Cc3ccccc3C1)N2 [stenoparib, 8-(isoindolin-2-ylmethyl)-2,9-dihydro-3H-pyridazino [3,4,5-de] quinazolin-3-one]
- IC50: 1.2 nM
